Results: patent US8476255B2, “Histone deacetylase inhibitors” (Orchid Chemicals & Pharmaceuticals Limited, priority 2007, dated 2013)

The chains behind the UniProt entries cited, without tags or fusion partners.
UniProt Q13547, whole entry: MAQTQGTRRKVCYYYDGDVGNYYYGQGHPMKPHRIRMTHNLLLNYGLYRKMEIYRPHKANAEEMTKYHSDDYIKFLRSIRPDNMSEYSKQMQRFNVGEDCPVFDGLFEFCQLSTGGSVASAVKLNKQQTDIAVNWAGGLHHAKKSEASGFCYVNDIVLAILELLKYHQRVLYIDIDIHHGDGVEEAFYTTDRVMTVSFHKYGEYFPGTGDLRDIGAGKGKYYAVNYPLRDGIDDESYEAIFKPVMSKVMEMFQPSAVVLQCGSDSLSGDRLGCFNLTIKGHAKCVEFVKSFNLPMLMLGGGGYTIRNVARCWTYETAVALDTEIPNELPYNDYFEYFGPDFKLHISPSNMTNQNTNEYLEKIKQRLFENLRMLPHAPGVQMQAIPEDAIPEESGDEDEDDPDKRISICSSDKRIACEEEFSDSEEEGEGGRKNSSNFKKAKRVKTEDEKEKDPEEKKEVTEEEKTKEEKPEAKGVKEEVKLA

What was measured:
recombinant HDAC1 enzyme = recombinant HDAC1 enzyme (Homo sapiens (Human), UniProt Q13547); test: HDAC1 inhibitory activity (isoform selectivity); type: biochemical; conditions: read-out: HDAC1 inhibition (IC50)
Protocol: Since the Benzamide type compounds are known to have potential for HDAC class I specificity, active compounds in this series were tested for HDAC1 inhibitory activity. The assay was carried out, as previously described using recombinant HDAC1 enzyme (BIOMOL, USA) and following manufacturer's instructions.

[1] = tested on: HDAC (Mouse Liver Extract); test: HDAC inhibition assay using Boc-Lys(Ac)-AMC substrate; type: biochemical; conditions: mouse liver enzyme
Protocol: Inhibition of HDAC has been implicated to modulate transcription and to induce apoptosis or differentiation in cancer cells. The fluorometric assay provides a fast and fluorescence based method that eliminates radioactivity, extractions or chromatography, as used in traditional assays. The assay is based on two steps. First, the HDAC fluorometric substrate, which comprises an acetylated lysine side chain, is incubated with a sample containing HDAC activity (Mouse Liver Extract). Deacetylation of the substrate sensitizes the substrate, in the second step; treatment with the Trypsin stop solution produces a fluorophore that can be easily analyzed using fluorescence plate reader. Assay was done in 96-well black microplate and total volume of the assay was […]. […] The plate was pre-incubated at 37° C. for 5 minutes. […] The plate was incubated at 37° C. for 30 min. The reaction was stopped by adding 100 μL, of Trypsin stop solution and incubating at 37° C. for 15-30 min. Measuring the fluorescence at excitation wavelength of 360 nm and emission wavelength of 460 nm monitored the release of AMC. Buffer alone and substrate alone served as blank. […] (Dennis Wegener et al, Anal. Biochem, 321, 2003, 202-208).

COc1cc(/C=C(/C(=O)NCc2ccc(C(=O)Nc3ccccc3N)cc2)c2ccc(F)cc2)ccc1F [Compound 20, N-(2-Aminophenyl)-4-((3-(4-fluoro-3-methoxyphenyl)-2-(4-fluorophenyl)acrylamido)methyl)benzamide]
IC50 (recombinant HDAC1 enzyme): 150 nM | IC50 [1]: 19 µM

CSc1ccc(/C=C(/C(=O)NCc2ccc(C(=O)Nc3ccccc3N)cc2)c2ccccc2F)cc1 [Compound 24, N-(2-Aminophenyl)-4-((3-(4-methylthiophenyl)-2-(2-fluorophenyl)acrylamido)methyl)benzamide]
IC50 (recombinant HDAC1 enzyme): 62 nM | IC50 [1]: 82 µM

COc1ccc(/C(=C\c2ccc(OC)c(OC)c2)C(=O)NCc2ccc(C(=O)Nc3ccccc3N)cc2)cc1 [Compound 27, N-(2-Aminophenyl)-4-((3-(3,4-dimethoxyphenyl)-2-(4-methoxyphenyl)acrylamido)methyl)benzamide]
IC50 (recombinant HDAC1 enzyme): 50 nM | IC50 [1]: 20 µM
